{"sequences": {"note": "Chains of the proteins cited; added tags and fusions are not shown. Residues count along the entry.", "UniProt P02751, 32-2477": "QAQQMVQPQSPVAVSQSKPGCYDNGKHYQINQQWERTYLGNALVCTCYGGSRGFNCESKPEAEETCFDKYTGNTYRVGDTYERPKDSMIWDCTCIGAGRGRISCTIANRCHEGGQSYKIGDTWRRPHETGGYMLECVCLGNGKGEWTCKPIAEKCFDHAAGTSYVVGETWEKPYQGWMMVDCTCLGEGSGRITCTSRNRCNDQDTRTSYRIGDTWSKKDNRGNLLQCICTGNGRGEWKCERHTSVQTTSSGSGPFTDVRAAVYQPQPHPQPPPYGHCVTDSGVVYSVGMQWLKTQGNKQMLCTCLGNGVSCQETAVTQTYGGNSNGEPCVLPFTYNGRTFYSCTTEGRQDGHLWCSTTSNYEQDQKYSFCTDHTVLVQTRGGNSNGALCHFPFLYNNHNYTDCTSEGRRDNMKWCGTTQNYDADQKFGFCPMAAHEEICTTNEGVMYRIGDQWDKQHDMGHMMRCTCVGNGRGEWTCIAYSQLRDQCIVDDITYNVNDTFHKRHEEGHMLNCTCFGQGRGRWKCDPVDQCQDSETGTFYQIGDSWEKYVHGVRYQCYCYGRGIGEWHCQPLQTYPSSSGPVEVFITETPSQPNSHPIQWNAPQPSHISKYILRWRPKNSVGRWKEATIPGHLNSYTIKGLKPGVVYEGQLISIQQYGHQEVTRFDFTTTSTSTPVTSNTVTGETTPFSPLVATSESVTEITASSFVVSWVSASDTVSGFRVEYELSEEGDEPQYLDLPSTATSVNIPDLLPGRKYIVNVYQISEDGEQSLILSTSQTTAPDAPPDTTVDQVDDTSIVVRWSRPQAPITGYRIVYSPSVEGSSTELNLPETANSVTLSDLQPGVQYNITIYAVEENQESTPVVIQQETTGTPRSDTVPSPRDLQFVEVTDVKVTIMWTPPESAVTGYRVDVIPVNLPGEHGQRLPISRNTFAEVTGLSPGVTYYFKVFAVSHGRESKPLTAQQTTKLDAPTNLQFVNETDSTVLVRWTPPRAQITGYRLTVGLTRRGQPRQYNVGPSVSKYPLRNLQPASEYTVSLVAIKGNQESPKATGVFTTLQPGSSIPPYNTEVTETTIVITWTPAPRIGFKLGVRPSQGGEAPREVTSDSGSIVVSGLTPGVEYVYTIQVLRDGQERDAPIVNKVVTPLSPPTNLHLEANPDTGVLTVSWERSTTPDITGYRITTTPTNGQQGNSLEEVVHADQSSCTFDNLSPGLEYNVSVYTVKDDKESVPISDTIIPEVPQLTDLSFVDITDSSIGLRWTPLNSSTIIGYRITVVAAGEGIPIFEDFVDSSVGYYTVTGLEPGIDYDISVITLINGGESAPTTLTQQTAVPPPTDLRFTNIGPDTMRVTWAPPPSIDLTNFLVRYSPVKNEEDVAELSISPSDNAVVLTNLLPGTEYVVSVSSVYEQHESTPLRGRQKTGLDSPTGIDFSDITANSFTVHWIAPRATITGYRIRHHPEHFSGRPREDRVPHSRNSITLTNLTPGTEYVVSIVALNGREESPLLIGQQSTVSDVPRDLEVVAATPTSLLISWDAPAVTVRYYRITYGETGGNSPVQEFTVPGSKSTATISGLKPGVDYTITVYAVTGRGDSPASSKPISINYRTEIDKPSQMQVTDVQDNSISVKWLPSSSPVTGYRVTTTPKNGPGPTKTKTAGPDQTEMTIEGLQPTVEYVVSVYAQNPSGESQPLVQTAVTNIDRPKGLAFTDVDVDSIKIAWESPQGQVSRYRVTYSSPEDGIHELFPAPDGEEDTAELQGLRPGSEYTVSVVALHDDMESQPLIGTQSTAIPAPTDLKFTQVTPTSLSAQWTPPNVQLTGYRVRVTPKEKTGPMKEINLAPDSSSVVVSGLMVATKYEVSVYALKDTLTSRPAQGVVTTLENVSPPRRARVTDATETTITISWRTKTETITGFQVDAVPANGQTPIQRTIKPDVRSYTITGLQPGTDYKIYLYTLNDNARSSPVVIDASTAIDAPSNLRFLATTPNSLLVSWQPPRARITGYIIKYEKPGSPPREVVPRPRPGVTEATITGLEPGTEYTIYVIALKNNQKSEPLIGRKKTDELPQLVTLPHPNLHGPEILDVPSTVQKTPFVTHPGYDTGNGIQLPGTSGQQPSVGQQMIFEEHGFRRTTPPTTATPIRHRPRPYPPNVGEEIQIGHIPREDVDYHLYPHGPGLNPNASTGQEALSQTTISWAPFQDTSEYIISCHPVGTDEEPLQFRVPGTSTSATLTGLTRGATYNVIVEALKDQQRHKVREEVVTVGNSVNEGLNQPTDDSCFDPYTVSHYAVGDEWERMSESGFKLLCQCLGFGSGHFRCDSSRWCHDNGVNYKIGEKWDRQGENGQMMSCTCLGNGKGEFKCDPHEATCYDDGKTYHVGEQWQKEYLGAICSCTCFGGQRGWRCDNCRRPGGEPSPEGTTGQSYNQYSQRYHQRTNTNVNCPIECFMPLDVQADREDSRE"}, "source": "paper PMC3508296", "molecular_target": "fibronectin (UniProt P02751)", "experiment": "SPR"}
{"substance": "RevA (natural protein; other documents disagree on this pair)", "values": [{"measurement": "Kd", "result": 880, "unit": "nM"}, {"measurement": "koff", "result": 0.15, "unit": "s⁻¹"}, {"measurement": "kon", "result": 171000, "unit": "M⁻¹ s⁻¹"}]}
